Measurements from the Kinase Knowledgebase extract (Sharma et al. 2016).

Sequences of proteins named here, by UniProt entry; tags and fusion partners are left off.
UniProt Q16539, whole entry, looked up: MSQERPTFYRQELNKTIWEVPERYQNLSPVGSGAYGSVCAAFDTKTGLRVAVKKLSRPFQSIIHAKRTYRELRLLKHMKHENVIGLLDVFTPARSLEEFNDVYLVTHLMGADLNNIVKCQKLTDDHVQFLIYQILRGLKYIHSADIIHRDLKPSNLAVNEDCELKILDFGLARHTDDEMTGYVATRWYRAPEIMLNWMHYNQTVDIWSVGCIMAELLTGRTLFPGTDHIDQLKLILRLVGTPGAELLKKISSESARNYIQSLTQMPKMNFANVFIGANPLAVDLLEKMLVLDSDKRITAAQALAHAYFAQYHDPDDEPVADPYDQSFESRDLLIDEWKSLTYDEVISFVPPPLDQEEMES

Molecular target: MAPK14 (UniProt Q16539)
Assay: Assessment of MAPK14 Kinase Activity Using Spectrophotometric Assay

Row | Compound | IC50 [nM]
1 | CCOC(=O)Cc1ccc(-n2nc(C(C)(C)C)cc2NC(=O)Nc2cccc(Cl)c2Cl)cc1 | 11
2 | CC(C)(C)c1cc(NC(=O)Nc2ccc(F)cc2F)n(-c2cccc(CC(N)=O)c2)n1 | 41
